# Test results from PubChem BioAssay AID492953 (The Scripps Research Institute Molecular Screening Center, 2010).
# Sequences of proteins named here, by UniProt entry; tags and fusion partners are left off. A change or cut given only in a name is not applied to a line headed by its entry.
# UniProt P68402: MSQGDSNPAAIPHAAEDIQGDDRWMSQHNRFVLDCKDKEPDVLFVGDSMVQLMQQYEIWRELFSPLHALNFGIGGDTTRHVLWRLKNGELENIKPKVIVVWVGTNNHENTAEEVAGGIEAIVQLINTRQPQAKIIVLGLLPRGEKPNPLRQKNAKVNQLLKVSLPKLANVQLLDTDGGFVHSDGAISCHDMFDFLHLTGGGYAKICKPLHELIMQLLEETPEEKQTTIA
# The list shows a part of the results, in another mix than the full data. Activity calls are given as the source filed them.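 Rule for the calls: active = inhibition above the mean of all tested compounds plus 3 SD (cut at about 24% in these data); inactive = the rest.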
# Biological target: Platelet-activating factor acetylhydrolase IB subunit alpha2 (Homo sapiens) (UniProt P68402)
# Assay: PAFAH1B2 enzyme inhibitors, primary screen, biochemical, fluorescence polarization, human (AID 492953);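 note: 0% = enzyme with DMSO and 100% = wells lacking PAFAH1B2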
# Conditions: recombinant PAFAH1B2, FP-rhodamine activity probe, at 3.39 µM, hits give high values
row,Structure (SMILES),inhibition
1,NC(=O)Nc1ccc([As](=O)(O)O)cc1,inactive: -2.58%
2,O=C(O)COc1ccc([As](=O)(O)O)cc1[N+](=O)[O-],inactive: 1.75%
3,Nc1ccccc1[As](=O)(O)c1ccccc1,inactive: 1.11%
4,CS(=O)(=O)c1cc([N+](=O)[O-])c2no[n+]([O-])c2c1,inactive: 12.2%
5,CCOP1(=S)c2c(C)nn(CCC#N)c2N=C(c2ccccc2F)N1C (configuration not stated),inactive: 7.41%
6,O=P(Nc1nccs1)(c1ccccc1)c1nc2ccccc2s1 (configuration not stated),inactive: -1.03%
7,O=P(Nc1nccs1)(Oc1ccccc1)Oc1ccccc1,inactive: 2.21%
8,COc1cc(C2NCCC3(OCCO3)C2(C)C)cc(OC)c1OC (configuration not stated),inactive: -5.67%
9,CCOP(=O)(Nc1cccc2ccccc12)OCC,inactive: -1.61%
10,CCCOP(=S)(Nc1nc(N)cc(=O)[nH]1)OCCC,inactive: 4.1%
11,Nc1cccc2c([As](=O)(O)O)cccc12,inactive: 8.33%
12,Cc1ccc(NCCc2c([N+](=O)[O-])cc([N+](=O)[O-])cc2[N+](=O)[O-])cc1,inactive: 11.7%
13,O=[As](O)(c1cccc(O)c1)c1cccc(O)c1,inactive: 3.24%
14,Cc1cccc(OCC(=O)OC2CN3CCC2CC3)c1 (configuration not stated),inactive: -1.1%
15,COc1cc(C(=O)NCC2(N3CCOCC3)CCCCC2)cc(Cl)c1OC(C)C,inactive: 5.97%
16,O=[As](O)(O)c1cccnc1,inactive: 6.17%
17,CS(=O)(=O)c1ccc(Cl)c(NC(=O)COC(=O)C(O)(c2ccccc2)c2ccccc2)c1,inactive: 2.17%
18,O=C(OC1CN2CCC1CC2)c1ccc(Cl)cc1 (configuration not stated),inactive: 4.33%
19,COc1ccc(N/C(=N/P(=O)(N2CCOCC2)N2CCOCC2)N2CCOCC2)cc1,inactive: 4.93%
20,O=[N+]([O-])c1cc(Oc2ccc([N+](=O)[O-])cc2C(F)(F)F)cc([N+](=O)[O-])c1,inactive: 8.64%
21,COc1ccc2nc(NP(=O)(c3ccccc3)c3ccccc3)sc2c1,inactive: 4.25%
22,COc1cc(I)ccc1[As](=O)(O)O,inactive: 4.49%
23,O=P1(N(CCCl)CCCl)Nc2ccccc2N1,inactive: 2.77%
24,O=P1(N(CCCl)CCCl)OCCCN1CCCl (configuration not stated),inactive: 2.61%
25,O=C(OC1CN2CCC1CC2)C12CC3CC(CC(C3)C1)C2 (configuration not stated),inactive: 5.47%
26,Cc1cc(=O)[nH]c(N[N+](=O)[O-])n1,inactive: -1.15%

row,Structure (SMILES),inhibition
1,Cc1c2c(nc3ccccc13)SC(C(Cl)Cl)C2 (configuration not stated),inactive: 7.59%
2,O=C(OC1CN2CCC1CC2)c1cccc2[nH]cnc12 (configuration not stated),inactive: -3.13%
3,CCN(CC)C(=S)SC(NC=O)C(Cl)(Cl)Cl (configuration not stated),inactive: 3.91%
4,O=[N+]([O-])c1cc([N+](=O)[O-])c(-c2ccn[nH]2)s1,inactive: 2.28%
5,CC(C)c1ccc(OP(=O)(Nc2ccccn2)Oc2ccccc2F)cc1 (configuration not stated),inactive: -3.11%
6,COC(=O)C1(C)COP(=O)(N2CCCCCC2)OC1 (configuration not stated),inactive: 9.22%
7,ClCCSc1nnc(-c2cccnc2)o1,inactive: -3.22%
8,Cc1ccc2nc3c(c(C)c2c1)CC(C(Cl)Cl)S3 (configuration not stated),inactive: 2.3%
9,Cc1ccc(OP(=O)(Nc2ccc([N+](=O)[O-])cn2)Oc2ccc(C)cc2)cc1,inactive: -1.12%
10,C[As](=O)(O)c1cccc(C(=O)O)c1,inactive: -0.69%
11,O=[As](O)(c1ccc(O)cc1)c1ccccc1O,inactive: 4.01%
12,COc1cc(C(=O)NCC2(N3CCOCC3)CCCCC2)ccc1OCC(C)C,inactive: -0.93%
13,O=[N+]([O-])c1ccc(-c2cc([N+](=O)[O-])c(O)c([N+](=O)[O-])c2)cc1,inactive: 5.17%
14,O=[N+]([O-])c1ccc(Nc2ccc(Oc3ccc([N+](=O)[O-])cc3[N+](=O)[O-])cc2)c([N+](=O)[O-])c1,inactive: 6.09%
15,Cc1cc(SC(NC=O)C(Cl)(Cl)Cl)ncn1 (configuration not stated),inactive: -2.2%
16,O=P(Nc1ccccn1)(c1cccc2ccccc12)c1cccc2ccccc12,inactive: 6.13%
17,CCOC(=O)Nc1cccc([As](=O)(O)O)c1,inactive: -5.8%
18,CCCCOc1ccc(C(=O)NCC2(N3CCCCC3)CCCCC2)cc1OC,inactive: -2.69%
19,Cc1cc(SC(NC(=O)c2ccccc2)C(Cl)(Cl)Cl)nc(C(C)C)n1 (configuration not stated),inactive: 4.12%
20,CC1CCNP(=O)(N(CCCl)CCCl)O1 (configuration not stated),inactive: 3.09%
21,CCOC(=O)Nc1ccc([As](=O)(O)O)c(O)c1,inactive: 4.73%
22,CCC(C)N(CC(C)C)C(=S)SC(NC(C)=O)C(Cl)(Cl)Cl (configuration not stated),inactive: 19.3%
23,CCOC(=O)c1ccc(NC(=O)C(C)(CCl)SC)cc1 (configuration not stated),inactive: 7.98%
24,O=C(OC1CN2CCC1CC2)c1cccc([N+](=O)[O-])c1 (configuration not stated),inactive: 3.83%
25,O=C(COc1ccccc1)OC1CN2CCC1CC2 (configuration not stated),inactive: 6.21%
26,O=C(Nc1ccncc1[N+](=O)[O-])c1ccc([N+](=O)[O-])cc1[N+](=O)[O-],inactive: 0.02%

row,Structure (SMILES),inhibition
1,COP1(=S)c2c(C)nn(CCC#N)c2N=C(c2ccc(F)cc2)N1C (configuration not stated),inactive: -2.18%
2,CC(C)=N/N=C(\N)N[N+](=O)[O-],inactive: -5.54%
3,CN(C)C(=O)OCCc1n(C)cc[n+]1C,inactive: -0.09%
4,CC1CCN(C(=O)Oc2c(Cl)cc(Cl)c3cccnc23)CC1,inactive: 2.65%
5,Nc1ccc([As](=O)(O)c2ccc(N)cc2)cc1,inactive: 3.54%
6,C[N+]1=C2C=CC=CC=C2SC12C([N+](=O)[O-])=CC([N+](=O)[O-])=C[C-]2[N+](=O)[O-] (configuration not stated),inactive: 14.2%
7,CCN(/C(=N/P(=O)(N1CCOCC1)N1CCOCC1)N1CCOCC1)c1ccc(OC)cc1,inactive: -3.8%
8,CC(=O)N1C2C3N(C(C)=O)C1C1N(C(C)=O)C(C(N1C(C)=O)N3C(C)=O)N2C(C)=O,inactive: 0.18%
9,O=[N+]([O-])c1cccc2n[nH]nc12,inactive: 6.87%
10,Cc1ccc(NP(=O)(Oc2ccccc2)Oc2ccccc2)nc1,inactive: -0.56%
11,O=[N+]([O-])c1cc([N+](=O)[O-])c(CCNc2ccccc2)c([N+](=O)[O-])c1,inactive: 16.3%
12,CCc1nc2c(n1)c1c(non1O)c1c2no[n+]1[O-],inactive: 11.2%
13,COc1ccc(C2=NCC(CBr)S2)cc1 (configuration not stated),inactive: 0.94%
14,O=[N+]([O-])c1cccc(NC2=NCC(CBr)S2)c1 (configuration not stated),inactive: 4.16%
15,COC(=O)C1(C)COP(=O)(Nc2ccccc2)OC1 (configuration not stated),inactive: 3.52%
16,O=C(O)CNc1ccc([As](=O)(O)O)cc1,inactive: 3.57%
17,CC(C)(C)C(=O)NC(Sc1ccncn1)C(Cl)(Cl)Cl (configuration not stated),inactive: 3.13%
18,O=[N+]([O-])c1ncn(CCn2ncnc2[N+](=O)[O-])n1,inactive: -3.36%
19,O=C(Nc1cc([As](=O)(O)O)ccc1O)c1ccccc1,inactive: 5.87%
20,O=P1(N(CCCl)CCCl)OCCCS1 (configuration not stated),inactive: 6.31%
21,CCN(N=Nc1nonc1N)c1nonc1N,inactive: 1.37%
22,Nc1cccc2ccc([As](=O)(O)O)cc12,inactive: 16%
23,CCOP(=O)(Nc1ccccc1)OCC,inactive: 2.11%
24,Cc1cc(SC(NC(=O)c2ccc(F)cc2)C(Cl)(Cl)Cl)ncn1 (configuration not stated),inactive: 8.19%
25,CN(C(=O)Cc1ccc(Cl)c(Cl)c1)[C@H]1CCCC[C@@H]1N1CCCC1,inactive: -8.48%
26,Cc1ccc(NP(=O)(Oc2ccccc2F)Oc2ccccc2F)nc1,inactive: 9.65%

row,Structure (SMILES),inhibition
1,O=C(O)c1ccccc1[As](=O)(O)O,inactive: 0.96%
2,CC(=O)Nc1ccc([As](=O)(O)O)cc1,inactive: 9.71%
3,CCCC1OP(N)(=O)OCC1CC (configuration not stated),inactive: 1.05%
4,O=P(Nc1nc2ccc(Cl)cc2s1)(c1ccccc1)c1ccccc1,inactive: 5.44%
5,CC(C)CC(=O)NC(Sc1ccc(Cl)cc1)C(Cl)(Cl)Cl (configuration not stated),inactive: 3.23%
6,Nc1cc(N)c2nonc2c1[N+](=O)[O-],inactive: -1.04%
7,Oc1ccccc1CNc1ccccn1,inactive: 0.02%
8,O=C(NC(Sc1ccncn1)C(Cl)(Cl)Cl)c1ccccc1 (configuration not stated),inactive: -1.97%
9,COc1ccccc1OP(=O)(Nc1ccc(C)cn1)Oc1ccccc1OC,inactive: 0.99%
10,Clc1ccc(Cl)c(NC2=NCC(CBr)S2)c1 (configuration not stated),inactive: 4.46%
11,CN1CCCC(OC(=O)C(c2ccccc2)c2ccccc2)C1 (configuration not stated),inactive: 2.33%
12,NC(=O)c1cc([N+](=O)[O-])cc([N+](=O)[O-])c1N,inactive: -3.74%
13,CN(C(=O)Cc1ccc(Cl)c(Cl)c1)[C@H]1CCCC[C@H]1N1CCCC1,inactive: -4.59%
14,Cc1ccc(N/C(=N/P(=O)(N2CCOCC2)N2CCOCC2)N2CCOCC2)cc1,inactive: -3.98%
15,CC(=O)Nc1ccc([As](=O)(O)O)c(O)c1,inactive: 5.14%
16,CC(=O)Nc1ccc(Oc2c([N+](=O)[O-])cc([N+](=O)[O-])cc2[N+](=O)[O-])cc1,inactive: 8.18%
17,N#C/C(=C\c1ccc(N(CCBr)CCBr)cc1)C(N)=O,inactive: 11.3%
18,CC(=O)c1ccc(N2CC2c2ccncc2)cc1 (configuration not stated),inactive: 2.2%
19,COC(=O)C1(C)COP(=O)(NCc2ccccc2)OC1 (configuration not stated),inactive: 2.44%
20,Cc1ccccc1CN(C)C(=O)COC(=O)C(O)(c1ccccc1)c1ccccc1,inactive: 3.83%
21,C[C@@H]1C=CCP(=O)(Oc2ccccc2)O1 (some centres not stated),inactive: -3.19%
22,C[C@H]1OP(=O)(Oc2ccccc2)C[C@@H]2O[C@@H]21 (some centres not stated),inactive: 5.21%
23,CCc1cc(O)c([N+](=O)[O-])c(C)c1[N+](=O)[O-],inactive: 14.1%
24,CC(C)(C)C(=O)NC(Sc1ccccc1)C(Cl)(Cl)Cl (configuration not stated),inactive: 18.9%
